This assay addresses T1, NT receptors (NTR) (Homo sapiens, UniProt P30989).
T1 construct: HT29 human adenocarcinoma cell membranes, that over-express NTR; endogenous in cells; host or cells: HT29 human colon adenocarcinoma cell membranes
As to the kind of experiment: Inhibition of 125I-NT binding to HT29 cell membranes. The settings on record: displacement of 125I-NT, HT29 human adenocarcinoma cell membranes.

Sequences of proteins named here, by UniProt entry; tags and fusion partners are left off.
UniProt P30989, whole entry: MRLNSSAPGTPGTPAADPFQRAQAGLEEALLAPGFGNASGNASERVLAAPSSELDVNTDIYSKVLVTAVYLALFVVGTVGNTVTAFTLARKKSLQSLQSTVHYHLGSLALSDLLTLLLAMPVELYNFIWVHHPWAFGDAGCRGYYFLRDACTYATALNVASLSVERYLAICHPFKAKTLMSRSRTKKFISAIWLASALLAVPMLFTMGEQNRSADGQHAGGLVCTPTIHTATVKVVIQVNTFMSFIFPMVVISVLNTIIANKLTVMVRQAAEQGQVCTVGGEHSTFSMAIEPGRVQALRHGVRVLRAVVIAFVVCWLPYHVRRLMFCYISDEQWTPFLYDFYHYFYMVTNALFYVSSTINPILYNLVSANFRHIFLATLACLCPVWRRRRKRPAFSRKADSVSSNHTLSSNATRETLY

The IC50 is the concentration that gives 50% inhibition. A high value points to a need for much substance. “tetrameric NT(8-13)4-PEG-Tetramethyl rhodamine [NT4(8-13)-TMR]” gave an IC50 of 20 nM. This lies in the double-digit nanomolar range.

For the origin of these results see patent EP1991561B1, “BRANCHED MULTIMERIC PEPTIDES FOR TUMOR DIAGNOSIS AND THERAPY” (Universita' Degli Studi di Siena, priority 2006, dated 2007).
